Apparent affinities of Ab-14 variants for a coronavirus HR2 peptide

The measurements come from Engelhart et al. 2022 (doi:10.1038/s41597-022-01779-4) through the FLAb antibody collection.

Binding partner: SARS-CoV-2 spike HR2 peptide, sequence PDVDLGDISGINAS.

Parent scFv Ab-14: VH joined to VL by three GGGGS repeats. Changes lie in the heavy chain CDRs alone.
VH: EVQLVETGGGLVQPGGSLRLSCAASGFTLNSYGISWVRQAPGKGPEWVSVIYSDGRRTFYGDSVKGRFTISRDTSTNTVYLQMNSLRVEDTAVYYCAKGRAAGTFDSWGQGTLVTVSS
VL: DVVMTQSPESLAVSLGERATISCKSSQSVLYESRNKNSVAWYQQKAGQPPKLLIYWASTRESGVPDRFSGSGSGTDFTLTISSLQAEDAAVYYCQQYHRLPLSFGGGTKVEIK

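The parent was found by panning a naive human phage display library on the peptide. The library (AAYL49) carries one to three amino acid substitutions per variant, with no insertions or deletions. AlphaSeq pools MATa yeast showing the antibodies with MATalpha yeast showing the peptide. Mating (16 h, 30 °C) was followed by selection of diploids and sequencing of their barcodes. The ratio of observed to expected reads was calibrated, replicate by replicate, on BCL2-family standards whose Kd was known from biolayer interferometry. Mating was done three times.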

Variants are written as CDR1, CDR2 and CDR3 of the heavy chain (limits as in the source). Parent: GFTLNSYGIS, VIYSDGRRTFYGDSVK, GRAAGTFDS.
All variants listed here change T104 of the VH, counted from its first residue.
The read-out is the apparent dissociation constant on a log10 scale (nM): the lower, the stronger.
The mean shown is taken over the replicates in which the pair was detected.
Where no diploid with the target was found in any replicate, the entry reads "nd": below detection, most likely a poor binder, though not proof of it.

For GFTLGSYGIS | VIYSDGRRTFYEDSVK | GRAAGLFDS, the assay gave 4.05 (3 of 3 replicates). With GFTLNSYGIS | VIYSDGRETFYGDSVK | GRHAGPFDS the result was 3.99 (2 of 3 replicates). The variant GFTLNSYGGS | VIYSDGRRTFYGDSVK | GRAAVWFDS gave nd (0 of 3 replicates). The variant GFTLNSYGIS | VIYSDGRRTFYGYSVK | GRAAGKFDS gave nd (0 of 3 replicates). For GFTLNSYGIS | VIYSDGRRTFYGLSWK | GRAAGMFDS, the assay gave nd (0 of 3 replicates).

The variant GFTLNSYGIS | VIYSDGRRTFYNDSVK | GRAAGRFDS showed nd (0 of 3 replicates). With GFTLNSYGIS | VTYSDGRRTFYGDSVK | GRAAGSFDA the result was nd (0 of 3 replicates). With GFTLNSYGIS | VIYSDGRCTFYGDSVK | GRAAGDFPS the result was 3.98 (1 of 3 replicates). The variant GFTLWSYGIS | VIYSDGRRTFYGDSVK | GRAAMNFDS gave 4.56 (2 of 3 replicates). The variant GRTLNSYGIS | VIYSDGRRTFYGDSVK | GRAEGWFDS gave nd (0 of 3 replicates).

For GFTLNSYGIS | VIISDGRRTFYGDSVW | GRAAGDFDS, the assay gave 3.38 (1 of 3 replicates). For GFTLNWYGIS | VIYSDGRRTFYGDSVN | GRAAGHFDS, the assay gave nd (0 of 3 replicates). The variant HFTLNSYGIS | VIYSDGRRTFYGDSVK | GCAAGWFDS gave nd (0 of 3 replicates). With GFTLNSYGIS | VIYSDGRRDFYGDSVK | QRAAGQFDS the result was 2.85 (2 of 3 replicates). For GFTLNSYGIS | VIYSDGRRTFYCDMVK | GRAAGDFDS, the assay gave 2.98 (3 of 3 replicates).

For GFTLNSYGIS | VIYSDGPRTFYHDSVK | GRAAGVFDS, the assay gave 3.48 (1 of 3 replicates). The variant GLTLNSYGIS | VIYSDGRRTFYGDSVK | GRAPGCFDS showed nd (0 of 3 replicates). The variant GFTLNSYGIS | VIYLDGCRTFYGDSVK | GRAAGYFDS showed nd (0 of 3 replicates). The variant GFTVNSYGIS | VIYSDGRRAFYGDSVK | GRAAGFFDS showed nd (0 of 3 replicates). The variant GDTLNSYGIS | VIYSDGRRTFYGDSVK | GRAAIDFDS gave nd (0 of 3 replicates).

For GFTLNSYGIS | VIYSDGRRTFYGDSVK | SRAAGRFDD, the assay gave nd (0 of 3 replicates). With GFTLNSYGIS | VIYSDGRRTFYGDSTK | GRAAGYVDS the result was 3.90 (1 of 3 replicates). With GFTLNSYGIS | VIYSDGRRTFYGDSVK | GRAAGRFDS the result was nd (0 of 3 replicates). With GFTLNSVGIS | VIYSDGRGTFYGDSVK | GRAAGEFDS the result was nd (0 of 3 replicates). The variant GFTLNSYGIS | VIYSDGRTTFYGDSVK | GRAAGLFDC gave nd (0 of 3 replicates).

The variant GFTLNRYGIS | VIYSDGWRTFYGDSVK | GRAAGCFDS gave nd (0 of 3 replicates). With GFTLCSYGIS | VIYSDGRRTFYGDSVK | GRAAGLFDS the result was 3.69 (1 of 3 replicates). The variant GSTLNSYGIS | VIYSDGRRTFYGDSVK | ERAAGLFDS showed 1.53 (3 of 3 replicates). For GFTLNSYGIS | VIYSDGRRTFYGDSVK | HRAAGFFDS, the assay gave nd (0 of 3 replicates). For GFTLNSYGKS | VIYSDGERTFYGDSVK | GRAAGKFDS, the assay gave nd (0 of 3 replicates).

The variant GFTLDSYGIS | VIYSDGRRTFYGDSVK | GDAAGPFDS gave 4.97 (2 of 3 replicates). The variant GFTLNSYGIS | VIYSVMRRTFYGDSVK | GRAAGVFDS gave 4.96 (1 of 3 replicates). The variant GFTLNSYGIS | VIYSDGRRTFYIDSVK | IRAAGPFDS gave 0.62 (3 of 3 replicates). The variant GFTLNSYGIS | VIYSDGRRTFYGDSVK | ERAAGEDDS gave 4.27 (1 of 3 replicates). The variant GFTLNSYGCN | VIYSDGRRTFYGDSVK | GRAAGRFDS showed nd (0 of 3 replicates).

With GFILNSYGIS | VIYSDGRRTFYGDLVK | GRAAGFFDS the result was 2.49 (3 of 3 replicates). For GFTLNSYGIS | VIYSDGRRTFGGDSVK | GRACGFFDS, the assay gave 3.64 (2 of 3 replicates). For GFTLDSYGIS | VIYSDGRRTFYGDSVK | GYAAGCFDS, the assay gave 1.21 (3 of 3 replicates). The variant GFTLNSYGIS | IIYSDGRRTFYGSSVK | GRAAGIFDS gave 3.52 (1 of 3 replicates). With GFTLNSYGIS | VIYSDGRCEFYGDSVK | GRAAGCFDS the result was 5.16 (3 of 3 replicates).

For GFTLFSYGIS | VIYSDGRRTFYGDSVK | GRAKGDFDS, the assay gave nd (0 of 3 replicates). For GFTLNSYGIS | VCYSDGRRTFYGDSEK | GRAAGYFDS, the assay gave 3.14 (1 of 3 replicates).

From the list, the first 6 with no signal in any replicate:

CDR-H1	CDR-H2	CDR-H3	mean, log10 nM	replicates with signal
GFTLNSYGGS	VIYSDGRRTFYGDSVK	GRAAVWFDS	nd	0/3
GFTLNSYGIS	VIYSDGRRTFYGYSVK	GRAAGKFDS	nd	0/3
GFTLNSYGIS	VIYSDGRRTFYGLSWK	GRAAGMFDS	nd	0/3
GFTLNSYGIS	VIYSDGRRTFYNDSVK	GRAAGRFDS	nd	0/3
GFTLNSYGIS	VTYSDGRRTFYGDSVK	GRAAGSFDA	nd	0/3
GRTLNSYGIS	VIYSDGRRTFYGDSVK	GRAEGWFDS	nd	0/3

Empty control strains, which show no peptide, gave a signal in 15% of pairings with library AAYL49; the median was 4.06 and 95% of these signals were weaker than 2.83. No background was subtracted.